The target in this assay is human full-length HSP90 (Homo sapiens, UniProt P08238). In words: Fluorescence polarization assay (competitive displacement of probe RBT0051001-FAM from HSP90). Conditions: read-out: activity in the fluorescence polarization assay; activity range stated in each example. From the text: Fluorescence Polarization Assay
Fluorescence polarization {also known as fluorescence anisotropy} measures the rotation of a fluorescing species in solution, where the larger molecule the more polarized the fluorescence emission. When the fluorophore is excited with polarized light, the emitted light is also polarized. The molecular size is proportional to the polarization of the fluorescence emission.
The fluoroscein-labelled probe —RBT0051001-FAM—
binds to HSP90 {full-length human, full-length yeast or N-terminal domain HSP90} and the anisotropy {rotation of the probe:protein complex} is measured.
Test compound is added to the assay plate, left to equilibrate and the anisotropy measured again. Any change in anisotropy is due to competitive binding of compound to HSP90, thereby releasing probe. […]
• 3) Aliquot 100 μl assay mix to all other wells • 4) Seal plate and leave in dark at room temp for 20 minutes to equilibrate Compound Dilution Plate—1×3 dilution series • 1) In a clear 96-well v-bottom plate-{# VWR 007/008/257} add 10 μl 100% DMSO to wells B1 to H11 • 2) To wells A1 to A11 add 17.5 μl 100% DMSO • 3) Add 2.5 μl cpd to A1. […] Add 2 μl of 100 mM standard cpd to wells B12-H12 {is positive control} • 13) The Z′ factor is calculated from zero controls and positive wells. […]
A general note: Fluorescence polarisation rises when a labelled molecule tumbles more slowly, as on binding a larger partner.

Chains of the proteins cited; added tags and fusions are not shown.
UniProt P08238, whole entry: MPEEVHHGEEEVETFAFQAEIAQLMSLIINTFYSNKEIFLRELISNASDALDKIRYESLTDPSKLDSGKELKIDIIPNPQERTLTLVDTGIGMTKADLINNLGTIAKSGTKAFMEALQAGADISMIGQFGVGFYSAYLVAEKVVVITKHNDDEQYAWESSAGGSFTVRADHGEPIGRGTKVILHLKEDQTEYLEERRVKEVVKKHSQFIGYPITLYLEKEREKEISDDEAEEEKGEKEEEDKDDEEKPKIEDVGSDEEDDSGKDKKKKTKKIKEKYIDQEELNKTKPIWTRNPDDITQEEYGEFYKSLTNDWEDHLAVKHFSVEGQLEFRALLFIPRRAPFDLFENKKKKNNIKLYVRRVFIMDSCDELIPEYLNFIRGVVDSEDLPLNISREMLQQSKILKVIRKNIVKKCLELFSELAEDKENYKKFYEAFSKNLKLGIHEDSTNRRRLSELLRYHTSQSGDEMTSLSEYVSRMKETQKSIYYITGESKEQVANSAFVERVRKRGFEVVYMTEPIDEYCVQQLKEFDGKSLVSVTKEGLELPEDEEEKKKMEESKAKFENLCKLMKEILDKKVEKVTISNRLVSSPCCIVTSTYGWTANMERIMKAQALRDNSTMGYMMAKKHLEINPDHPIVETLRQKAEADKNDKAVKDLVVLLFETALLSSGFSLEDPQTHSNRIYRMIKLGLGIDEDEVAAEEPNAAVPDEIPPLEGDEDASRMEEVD

We go through one compound from patent US20090069336A1, “PYRIMIDOTHIOPHENE COMPOUNDS” (VERNALIS (CAMBRIDGE) LIMITED., priority 2004, published 2009).

Take `Cc1sc(N)nc1-c1cc2c(-c3ccc(Cl)cc3Cl)nc(N)nc2s1`: the IC50 is less than 10 µM.
